Measurements as given in patent US20130046171A1, “DEVICE AND METHOD FOR ACCESSING AND TREATING DUCTS OF MAMMARY GLANDS” (priority 2008, published 2013).

Test system: ductal carcinoma in situ, MNU-induced tumor formation
Assay: MNU-induced tumor formation rat model, teat infusion of anticancer agents
Assay type: in vivo, Sprague Dawley rats
Settings: 1.67 mg/teat; necropsy Day 120±2
Source text: The objective of this study was to evaluate the efficacy of five test articles (four marketed anticancer agents), administered directly into the mammary gland ducts via teat infusion, for therapy and prevention of ductal carcinoma in situ in an N-Nitroso-N-Methylurea (MNU)-induced tumor formation rat model. Based upon previous animal studies, candidates were selected for more rigorous evaluation at B Braun Biological Test Center (BTC) in Irvine, Calif. This facility was chosen to continue the preclinical work, started by Dr. Sukumar at JHU in order to support studies with a larger number of animals, in compliance with Good Laboratory Practices.
Methods: The cytotoxic agents included carboplatin (tested at two dose levels), Taxol® (paclitaxel), Herceptin® (trastuzumab), and Doxil® (doxorubicin HCl). The agents were tested in 120 female Sprague Dawley rats (n=20 per treatment). On Day 1, each rat was injected intraperitoneally with MNU to induce tumor formation. On Day 15, each rat received one of the following six intra-ductal treatments: No treatment (control); infusion of carboplatin (0.75 mg/teat); infusion of Taxol® (0.15 mg/teat); infusion of carboplatin (0.42 mg/teat); infusion of Herceptin® (1.67 mg/teat); or infusion of Doxil® (0.15 mg/teat). Each rat was dosed in 11-12 teats except for one rat with 5 non-infusable teats. […]

trastuzumab [Herceptin®]
rats with no visible masses or mammary lesions at necropsy: 4 of 20
